# Measured affinities in a library of Ab-14 heavy chain variants

All variants were tested on one target, the spike HR2 peptide PDVDLGDISGINAS (SARS-CoV-2).

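The starting antibody came from a phage panning campaign against this peptide. Designed CDR sequences, proposed from the first random library and measured here. Group labels follow the data file (Ctrl: baseline library sampled from a position-specific scoring matrix, with some repeated check sequences; Rand: our label for a block that the file lists under HC and that is probably the random mutants of the ten best first-round binders; En: ensemble of fine-tuned language models; GP: Gaussian process model; GPLM: also part of the Gaussian process libraries; HC: hill climbing; Gen: genetic algorithm; Gibbs: Gibbs sampling; a sequence that several methods proposed may carry one label only). Affinity was read by AlphaSeq, a pooled yeast mating assay with surface-displayed partners. After mating in shaken culture at 30 °C for 16 h, diploids were selected and their barcode pairs sequenced. Each replicate has its own calibration line, from reference interactions of the BCL2 family. There are six technical replicates.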

The variants keep the light chain, the linker and the frameworks of Ab-14 (scFv order VH, the linker GGGGSGGGGSGGGGS, VL).
VH: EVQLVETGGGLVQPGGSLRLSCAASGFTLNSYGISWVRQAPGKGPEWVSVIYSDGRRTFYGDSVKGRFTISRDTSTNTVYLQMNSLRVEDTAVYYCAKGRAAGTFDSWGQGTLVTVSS
VL: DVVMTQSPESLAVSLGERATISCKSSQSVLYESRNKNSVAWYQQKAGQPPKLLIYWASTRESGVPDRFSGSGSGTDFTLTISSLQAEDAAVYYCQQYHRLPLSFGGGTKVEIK

Positions count from residue 1 of the parent VH; G61S puts S in place of G.
Variants here have at most six changes.
Kd is apparent (estimated from mating counts) and averaged on the log scale over replicates with a signal. Smaller is tighter.
"no signal" marks a missing value. The strain was present, yet no cells mated with the target were sequenced in any replicate, which points to weak or no binding.
The authors' rule: three or more of the six replicates give a measured affinity, fewer mean a poor binder.
Nonspecific signal, from three strains lacking the peptide, appeared in 1% of pairings of all heavy chain designs, centred on 120 nM (5% of these signals below 7.0 nM); values are not corrected for it.
Values of this round are not directly comparable with the first-round values of the same sequences.
Of ten entries with the parent sequence, four were seen in most replicates (averages 2.2 nM to 240 nM), three in one and three in none, so single entries are noisy.

- G61S/G103W [Ctrl] = no signal (0 of 6 replicates)
- A101F [Ctrl] = 9.3 nM (2 of 6 replicates)
- S31E/A101I/D106N [GP_HC] = no signal (0 of 6 replicates)
- G61I/A101Q [GPLM_Gibbs] = 45 nM (1 of 6 replicates)
- T28D/S31T/F59A/S63Q/R100Q [GP_Gibbs] = 900 pM (6 of 6 replicates)
- T28D/S63A/R100K [GPLM_HC] = 2.5 nM (6 of 6 replicates)
- G61S/A101V/A102S [GPLM_HC] = 130 nM (6 of 6 replicates)
- R100Y/G103V [Ctrl] = no signal (0 of 6 replicates)
- L29I/S31E/F105K [Ctrl] = no signal (0 of 6 replicates)
- S31E/D62G/R100S/D106S [Ctrl] = no signal (0 of 6 replicates)
- T28S/A101T/S107A [GPLM_Gen] = 7.9 nM (6 of 6 replicates)
- N30L/R100T [Ctrl] = 52 nM (3 of 6 replicates)
- G61S/A102P [Ctrl] = 8.5 nM (6 of 6 replicates)
- F27T/V50N/R56Q/G61M [Ctrl] = no signal (0 of 6 replicates)
- T28E/R56K/A101N [GP_Gen] = 2.0 nM (6 of 6 replicates)
- S31E/G103V/S107W [GPLM_HC] = no signal (0 of 6 replicates)
- G26S/T28D/G61A/R100K/A101T [GP_Gen] = no signal (0 of 6 replicates)
- T28D/G61A/S63D/R100K [GP_Gen] = 1.3 nM (6 of 6 replicates)
- A101W/G103K/F105K [Ctrl] = no signal (0 of 6 replicates)
- S31R/R100G [Ctrl] = 75 nM (3 of 6 replicates)
- T28E/G61A/S63D/A101M [GP_Gen] = 4.0 nM (6 of 6 replicates)
- N30T/G99E/R100Y/D106C [Ctrl] = no signal (0 of 6 replicates)
- T28Q/S31E/S63Q/R100K/A101T [GP_Gen] = 2.0 nM (6 of 6 replicates)
- G26P/T28D/T104W/D106N [Rand] = no signal (0 of 6 replicates)
- T28E/S31D/G61H/A101T [GP_Gen] = 350 pM (6 of 6 replicates)
- G61H/K65D [Ctrl] = 38 nM (3 of 6 replicates)
- T28S/S31M/G61V/A101T [GPLM_Gen] = 16 nM (3 of 6 replicates)
- T28R/T104C [Ctrl] = no signal (0 of 6 replicates)
- G61S/K65R/R100E/A102P [Ctrl] = 14 nM (6 of 6 replicates)
- T28D/S31E/S53A/G61S/R100E/S107V [En_HC] = 280 pM (6 of 6 replicates)
- T28N/S53G [Ctrl] = 71 nM (2 of 6 replicates)
- S53R/G61Q [Ctrl] = no signal (0 of 6 replicates)

Top 3 of the variants detected in all replicates, tightest first:

| changes | group | apparent Kd | replicates with signal |
|---|---|---|---|
| T28D/S31E/S53A/G61S/R100E/S107V | En_HC | 280 pM | 6 of 6 |
| T28E/S31D/G61H/A101T | GP_Gen | 350 pM | 6 of 6 |
| T28D/S31T/F59A/S63Q/R100Q | GP_Gibbs | 900 pM | 6 of 6 |

Values reported by Li et al. 2023, doi:10.1038/s41467-023-39022-2 (FLAb copy).